Only some compounds are listed: those with a hit (about 1.7% of all), similar ones and a draw of the others.
DYRK1A inh: Dyrk1A (rat) kinase inhibition; Q63470; ADP-Glo luminescence, NFATc1 peptide; inhibition, % at 12.5 µM; 310,000 compounds, 0.43% hits; in the data active means inhibition above about 50%
CAL PDZ FP-1: inhibitors of human CAL PDZ peptide binding | inhibition, % at 20 µM | 330,000 compounds, 0.02% hits | Q9HD26 | purified CAL PDZ, TMR-peptide fluorescence polarization, 1 h;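 active means highest replicate inhibition of at least 40%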
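Read-out basis: mP drop reported as inhibition | Assay system: Tagged CAL PDZ protein CerCALP, purified | Benchmarks: Unlabelled peptide for full inhibition, DMSO wells as neutral | Schedule: 1 h incubation at room temperature before polarization reading | Buffer or medium: Sodium phosphate/NaCl buffer pH 7.4 with TCEP, IgG, Thesit | Doses: Single point, 20 µM | Measured by: Fluorescence polarization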
CAL PDZ FP-2: inhibitors of human CAL PDZ peptide binding. Q9HD26. purified CAL PDZ, TMR-peptide fluorescence polarization, 1 h. inhibition, % at 24.9 µM. 300,000 compounds, 0.92% hits;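 active means mean inhibition of at least 30% with at least half of replicates also reaching 30%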
UUG fidelity: modulators of start codon recognition fidelity in yeast; AID 602363; hit rate 0.13% among 350,000; activity score, % at 18.7 µM; S. cerevisiae UUG-firefly luciferase reporter, luminescence/redox ratio;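 active = replicate mean at a twofold rise or more, about +100% in these data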;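 note: firefly luciferase made from a UUG start codon reports start codon fidelity; reporter light over untreated wells divided by growth signal over untreated wells; some hits fall short of that in this replicate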
CDK5 inh: inhibitors of human CDK5/p35 kinase. Recombinant CDK5/p35, ADP-Glo luminescence, 60 min. inhibition, % at 10 µM. Q00535+Q15078. 330,000 compounds, 0.01% hits;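 active means highest replicate inhibition of at least 50% and at least 75% of replicates reaching 50%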
dFosB act: enhances mouse delta FosB homodimer DNA binding; P13346; purified delta FosB, TAMRA-CDK5 oligo fluorescence polarization; percent of positive-control signal above neutral wells; activation, % at 25 µM; 340,000 compounds, 0.99% hits;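 active means mean activation above about 17%, with every replicate also reaching it, limit read from the data, passing the limit was not always enough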
Dyrk1A artifact: counter-screen for Dyrk1A inhibitors: ADP-Glo luciferase artifacts | shares compounds with DYRK1A inh | ADP-Glo luciferase artifact assay, no Dyrk1A, luminescence | AC50, µM (highest dose often 12 µM) | 1,300 tested, under 10 active;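 active means fitted half-maximal dose AC50 no more than ten times the top valid tested dose, with luminescence dropping as dose rises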
Numbers stand for hits; . = inactive; / = no result given.

SMILES | DYRK1A inh | CAL PDZ FP-1 | CAL PDZ FP-2 | UUG fidelity | CDK5 inh | dFosB act | Dyrk1A artifact
Cc1[nH]ccc2c1[nH]c1cc(=O)ccc12 | 93 | . | . | . | . | . | .
Cc1cccc(Nc2cc(C)c3c(O)cccc3n2)c1C | 68 | . | . | . | . | 43 | .
CN1CCN(C(=O)C[C@@H]2CC[C@H]3[C@@H](COC[C@@H](O)CN3S(=O)(=O)c3cccc(Cl)c3)O2)CC1 | / | / | / | . | / | / | /
O=C(C[C@H]1CC[C@H](NC(=O)C2CCC2)[C@@H](CO)O1)NC1CCC1 | / | / | / | . | / | / | /
NNc1nccc(Nc2ccccc2C(=O)O)n1 | 84 | . | . | . | . | . | .
O=[N+]([O-])c1ccc(-c2nc3ccc([N+](=O)[O-])cc3[nH]2)cc1 | . | . | . | . | . | . | /
CCCC[n+]1ccc(-c2nc3ccc([N+](=O)[O-])cc3[nH]2)cc1 | 83 | . | . | / | . | . | .
O=C1C=CC(O)(c2cc(=O)c3c(O)cc(O)cc3o2)C=C1 | 51 | . | . | . | . | . | .
CC(=O)N(C[C@H]1N[C@H](CO)[C@H]1c1ccc(-c2ccc(F)cc2)cc1)C(C)C | / | / | / | . | / | / | /
COc1cc(O)cc2cc3c(c(O)c12)C(=O)CC(C)(O)O3 (configuration not stated) | 108 | . | . | . | . | . | .
COc1cc(O)c2c(c1)OC(C)(C)CC2=O | . | . | . | . | . | . | /
C[C@@H]1CN([C@H](C)CO)S(=O)(=O)c2ccc(Br)cc2O[C@H]1CN(C)S(=O)(=O)c1ccccc1 | / | / | / | . | / | / | /
Oc1ccc2c(c1)oc1cc(O)ccc12 | 90 | . | . | . | . | . | .
CCC(=O)N1CCN(c2ccnc3cc(Cl)ccc23)CC1 | 55 | . | . | / | . | . | .
CCOC(=O)N1CCN(c2ccnc3cc(Cl)ccc23)CC1 | . | . | . | . | . | . | /
C[C@H](CO)N1C[C@H](C)[C@H](CN(C)Cc2ccccn2)Oc2ncc(C#Cc3cccc(F)c3)cc2C1=O | / | / | / | . | / | / | /
COc1ccc(C(=O)N2CCN(c3c(C)cccc3C)CC2)cc1OC | 59 | . | / | . | . | . | .
COc1ccc(C(=O)N2CCN(c3ccc(C)cc3)CC2)cc1OC | . | . | / | . | . | . | /
Cc1ccc(S(=O)(=O)Nc2ccc3c(c2)CC(=O)N([C@H](C)CO)C[C@@H](C)[C@@H](CN(C)S(C)(=O)=O)O3)cc1 | / | / | / | . | / | / | /
CC(=O)Nc1cccc(-c2cnc(N)c(C(=O)c3cccnc3)n2)c1 | 88 | . | . | . | . | . | .
COc1cccc(-c2ccc3c(c2)[C@H]2[C@H](CCN2C(=O)C2CCOCC2)[C@@H](CO)N3)c1 | / | / | / | . | / | / | /
CC1OC(OC2C(Oc3c(-c4ccc(O)cc4)oc4cc(O)cc(O)c4c3=O)OC(COC3O[C@@H](C)[C@H](O)[C@@H](O)C3O)C(O)C2O)C(O)C(O)C1O (some centres not stated) | . | . | . | . | . | . | /
C[C@@H]1O[C@@H](OC[C@H]2O[C@@H](Oc3c(-c4ccc(O)c(O)c4)oc4cc(O)cc(O)c4c3=O)[C@H](O)[C@@H](O)[C@@H]2O)[C@H](O)[C@H](O)[C@H]1O | 77 | . | . | . | . | . | .
CC1OC(OCC2OC(Oc3c(-c4ccc(O)cc4)oc4cc(O)cc(O)c4c3=O)C(O)C(O)C2O)C(O)C(O)C1O (configuration not stated) | 53 | . | . | . | . | . | .
O=c1c2c(O)cc(O)cc2oc2ccc(O)c(O[C@@H]3O[C@H](CO)[C@@H](O)[C@H](O)[C@H]3O[C@H]3O[C@H](CO)[C@@H](O)[C@H](O)[C@H]3O)c12 | 79 | . | . | . | . | . | .
SMILES | DYRK1A inh | CAL PDZ FP-1 | CAL PDZ FP-2 | UUG fidelity | CDK5 inh | dFosB act | Dyrk1A artifact
C[C@@H]1CN([C@@H](C)CO)C(=O)c2cc(-c3ccncc3)cnc2O[C@@H]1CN(C)C(=O)c1ccc(F)cc1 | / | / | / | . | / | / | /
C[C@@H]1CCCCO[C@@H](CN(C)S(=O)(=O)c2ccccc2)[C@H](C)CN([C@H](C)CO)C(=O)c2cc(NS(=O)(=O)c3cccs3)ccc2O1 | / | / | / | . | / | / | /
Cc1cccc(NC(=S)NN2CCN(C)CC2)c1 | 54 | . | . | . | . | . | .
CCCNC(=O)C[C@@H]1CC[C@@H]2[C@H](COc3ccc(NC(=O)c4cc(C)on4)cc3C(=O)N2C)O1 | / | / | / | . | / | / | /
CC(C)NC(=O)Nc1cccc2c1O[C@H](CN(C)C(=O)NC1CCCCC1)[C@H](C)CN([C@H](C)CO)C2=O | 51 | . | . | . | . | . | .
Cc1noc(C)c1NC(=O)Nc1ccc2c(c1)C(=O)N([C@H](C)CO)C[C@H](C)[C@@H](CN(C)Cc1ccc3c(c1)OCO3)O2 | / | / | / | . | / | / | /
COc1cccc(C(=O)Nc2ccc(F)c(F)c2F)c1 | 51 | . | . | . | . | . | .
COC(=O)C[C@H]1C=C[C@@H](NS(=O)(=O)c2ccccc2F)[C@@H](CO)O1 | / | / | / | . | / | / | /
CCOC(=O)c1ccc2ncc(C(=O)OCC)c(Nc3ccc(N4CCOCC4)cc3)c2c1 | 65 | . | . | / | . | . | .
CCOC(=O)c1cnc2ccc(C(=O)OC)cc2c1Nc1ccc(C(=O)O)cc1 | . | . | . | / | . | . | /
O=C(C1CC(=O)N(C2CCCC2)C1)N1CCN(c2ccc(F)cc2)CC1 (configuration not stated) | 61 | . | / | . | . | . | .
O=C(C1CC(=O)N(C2CCCC2)C1)N1CCN(c2ccccc2)CC1 (configuration not stated) | . | . | . | . | . | . | /
C[C@H](CO)N1C[C@H](C)[C@H](CN(C)S(C)(=O)=O)Oc2c(NS(=O)(=O)c3ccccc3)cccc2C1=O | / | / | / | . | / | / | /
COc1ccc2c(c1)C(=NN)c1cc(OC)ccc1-2 | 79 | . | . | . | . | . | .
COc1ccc(OC)c(N)c1 | . | . | . | . | . | . | /
COc1ccc2c(c1)C(=NNc1ccc(C(=O)O)cc1)c1cc(OC)ccc1-2 | 83 | . | . | . | . | . | .
C[C@@H]1CCCCO[C@H](CN(C)S(=O)(=O)c2ccc(Cl)cc2)[C@H](C)CN([C@H](C)CO)C(=O)c2cc(NC(=O)CCC(F)(F)F)ccc2O1 | / | / | / | . | / | / | /
COCCNC(=O)C[C@@H]1C=C[C@H](NS(=O)(=O)c2ccc(C)cc2)[C@H](CO)O1 | / | / | / | . | / | / | /
CS(=O)(=O)Nc1ccc(-c2cc(/C=C3\SC(N)=NC3=O)c[nH]c2=O)cc1 | 86 | . | . | . | . | . | .
NS(=O)(=O)c1ccc(-c2ccc(/C=C3\NC(=S)NC3=O)o2)cc1 | 75 | . | . | . | . | . | .
Cc1[nH][nH]c(=O)c1N=Nc1ccc(Br)c(Cl)c1 | . | . | / | . | . | . | /
Cc1[nH][nH]c(=O)c1N=Nc1ccccc1Cl | 55 | . | / | / | . | . | .
